{
  "source": "patent US6177441A",
  "about": "“Treating red blood cell solutions with anti-viral agents” (Cerus Corporation, priority 1998, dated 2001)",
  "key": {"[1]": {"test_system": "R17", "test": "Loss of QM anti-viral activity on pre-incubation in Adsol; light controls (Example 4)"}, "[2]": {"test_system": "R17", "test": "R17 inactivation in red blood cells, QM vs chlorambucil (Example 10)", "format": "cell-based, bacteriophage R17", "settings": "all concentrations (10-300 μg/ml), 4° C. overnight"}, "[3]": {"test_system": "R17", "test": "Kinetics of R17 inactivation by QM with NAC quench (Example 3)"}, "[4]": {"test_system": "R17", "test": "R17 inactivation by QM as a function of hematocrit (Example 2)", "settings": "QM 1.0 μg/ml"}, "[5]": {"test_system": "R17", "test": "R17 phage inactivation by QM in Adsol or DMSO, red blood cells (Example 1)", "settings": "30% Htc"}, "[6]": {"test_system": "R17", "test": "R17 inactivation by QM after pre-incubation in Adsol, red blood cells or with Amberlite XAD-16 (Example 5)"}, "[7]": {"test_system": "red blood cells", "settings": "80 μg/ml, high dose biotin label; untreated 93.5"}},
  "data": [
    {"smiles": "CCN(CC)CCCC(C)Nc1c2ccc(Cl)cc2nc2ccc(OC)cc12", "note": "(stereo not drawn) [quinacrine]", "values": [
      {"measurement": "Log Titer", "setting": "[1]; quinacrine + light, control 9.7", "value": 9.7},
      {"measurement": "Log Titer", "setting": "[1]; quinacrine in foil, control 9.7", "value": 9.7}
    ]},
    {"smiles": "COc1ccc2nc3cc(Cl)ccc3c(NC(C)CCCN(CCCl)CCCl)c2c1.Cl.Cl", "note": "(stereo not drawn)", "values": [
      {"measurement": "R17 inactivation", "setting": "[2]", "value": "≥ 8.4", "unit": "logs/ml"},
      {"measurement": "Log Titer", "setting": "[1]; QM 0 min pre-incubation, dark", "value": 3.8},
      {"measurement": "Log Titer", "setting": "[1]; QM 10 min pre-incubation, dark", "value": 3.9},
      {"measurement": "Log Titer", "setting": "[1]; QM 40 min pre-incubation, dark", "value": 3.9},
      {"measurement": "Log Titer", "setting": "[1]; QM 2 hour pre-incubation, dark", "value": 4.8},
      {"measurement": "Log Titer", "setting": "[1]; QM + light (not wrapped in foil), time 0, control 9.7", "value": 3.9},
      {"measurement": "Log Titer", "setting": "[3]; QM first, NAC quench at 0 min, dilute", "value": 8.11},
      {"measurement": "Log Titer", "setting": "[3]; QM first, NAC quench at 2 min, dilute", "value": 6.81},
      {"measurement": "Log Titer", "setting": "[3]; QM first, NAC quench at 4 min, dilute", "value": 5.79},
      {"measurement": "Log Titer", "setting": "[3]; QM first, NAC quench at 8 min, dilute", "value": 4.10},
      {"measurement": "Log Titer", "setting": "[3]; QM first, NAC quench at 16 min, dilute", "value": 3.74},
      {"measurement": "Log Titer", "setting": "[3]; QM first, NAC quench at 32 min, dilute", "value": 2.69},
      {"measurement": "Log Titer", "setting": "[3]; QM first, NAC quench at 64 min, dilute", "value": 2.39},
      {"measurement": "Log Titer", "setting": "[3]; QM first, NAC quench at 128 min, dilute", "value": "≤ 2.4"},
      {"measurement": "Log Titer", "setting": "[3]; first add NAC, then QM, dilute", "value": 8.66},
      {"measurement": "Log Titer", "setting": "[3]; first add NAC, then QM, dilute at end", "value": 6.32},
      {"measurement": "Log Titer", "setting": "[4]; Htc 3%", "value": 2.1},
      {"measurement": "Log Titer", "setting": "[4]; Htc 10%", "value": 2.6},
      {"measurement": "Log Titer", "setting": "[4]; Htc 30%", "value": 2.4},
      {"measurement": "Log Titer", "setting": "[5]; QM 2.5 μg/ml, solvent DMSO", "value": 5.2},
      {"measurement": "Log Titer", "setting": "[5]; QM 5 μg/ml, solvent DMSO", "value": 2.3},
      {"measurement": "Log Titer", "setting": "[5]; QM 10 μg/ml, solvent DMSO", "value": 2.4},
      {"measurement": "Log Titer", "setting": "[5]; QM 20 μg/ml, solvent Adsol", "value": 1.3},
      {"measurement": "Log Titer", "setting": "[6]; QM-Adsol, 0 min, untreated 9.7", "value": 2.9},
      {"measurement": "Log Titer", "setting": "[6]; QM-Adsol, 240 min", "value": 3.7},
      {"measurement": "Log Titer", "setting": "[6]; QM-RBC, 0 min", "value": 2.8},
      {"measurement": "Log Titer", "setting": "[6]; QM-RBC, 60 min", "value": 7.1},
      {"measurement": "Log Titer", "setting": "[6]; QM-RBC, 240 min", "value": 9.7},
      {"measurement": "Log Titer", "setting": "[6]; QM-XAD (RBC + XAD-16), 15 min", "value": 7.9},
      {"measurement": "Log Titer", "setting": "[6]; QM-XAD (RBC + XAD-16), 30 min", "value": 9.1},
      {"measurement": "Log Titer", "setting": "[6]; QM-XAD (RBC + XAD-16), 60 min", "value": 9.6},
      {"measurement": "Log Titer", "setting": "[6]; QM-XAD (RBC + XAD-16), 120 min", "value": 9.8},
      {"measurement": "Log Titer", "setting": "[6]; QM-XAD (RBC + XAD-16), 240 min", "value": 9.8},
      {"measurement": "% RECOVERY, HIGH", "setting": "[7]", "value": 91.2, "unit": "%"}
    ]}
  ]
}
